This test deals with full length BRCA1 (human, UniProt P38398). The experiment in a line: GST pull-down, SDS-PAGE and fluorography.

B1: GST (glutathione-S-transferase alone) (other)
chain: MSPILGYWKIKGLVQPTRLLLEYLEEKYEEHLYERDEGDKWRNKKFELGLEFPNLPYYIDGDVKLTQSMAIIRYIADKHNMLGGCPKERAEISMLEGAVLDIRYGVSRIAYSKDFETLKVDFLSKLPEMLKMFEDRLCHKTYLNGDHVTHPDFMLYDALDVVLYMDPMCLDAFPKLVCFKKRIEAIPQIDKYLKSSKYIAWPLQGWQATFGGGDHPPK
As for B1, the binding result is on record as “no binding”.
